# scFv variants of Ab-14 (heavy chain) against a SARS-CoV-2 spike peptide

From the AlphaSeq antibody data of Engelhart et al. 2022 (doi:10.1038/s41597-022-01779-4), copy in the FLAb collection.

The target is the same throughout: PDVDLGDISGINAS, from the HR2 region of SARS-CoV-2 spike.

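The parent was found by panning a naive human phage display library on the peptide. In library AAYL49, one, two or three CDR residues were substituted; doubles and triples were drawn at random. The scFvs were displayed on barcoded MATa yeast, the peptide on MATalpha yeast. After mating in shaken culture at 30 °C for 16 h, diploids were selected and their barcode pairs sequenced. Scores were corrected for input abundance and mapped to Kd with protein pairs of known affinity run in the same pool. There are three technical replicates.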

Parent scFv Ab-14: VH joined to VL by a (GGGGS)3 linker. Changes lie in the heavy chain CDRs alone.
VH: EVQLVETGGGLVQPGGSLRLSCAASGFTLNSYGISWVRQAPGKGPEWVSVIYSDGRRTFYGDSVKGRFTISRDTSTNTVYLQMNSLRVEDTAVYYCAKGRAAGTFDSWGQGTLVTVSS
VL: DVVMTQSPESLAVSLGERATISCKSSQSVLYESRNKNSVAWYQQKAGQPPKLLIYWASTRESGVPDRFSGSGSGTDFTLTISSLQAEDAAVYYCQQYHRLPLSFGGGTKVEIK

Positions count from residue 1 of the parent VH; R56G puts G in place of R. This list gathers variants with a substitution at R56 (VH, numbered from residue 1). Kd is apparent (estimated from mating counts) and averaged on the log scale over replicates with a signal. Smaller is tighter. A pair that was not seen in any replicate is written "not detected"; this usually means weak binding, but a binder can also be missed. Three control strains display no target. For library AAYL49, 15% of the pairings with them gave a signal, with a median of 11 µM and one signal in twenty below 680 nM, so weak values seen in few replicates may be background. The control count says in how many pairings with the empty strains this scFv gave a signal.

changes	Kd	seen in	control signals
R56G Y60V	not detected	0/3	0/9
R56S T58V S107Y	11 nM	3/3	0/9
T28M S53A R56C	17 nM	2/3	0/9
R56S S107I	120 nM	3/3	0/9
T28S R56A K65H	1.2 µM	2/3	0/9
R56C K65I F105E	37 µM	1/3	3/9
R56T T58V R100S	2.0 µM	3/3	0/9
L29Q R56E S63K	17 µM	2/3	1/9
G26A R56D G99W	480 nM	3/3	2/9
R56L F59N A101I	14 nM	3/3	2/9
Y32L V50T R56P	not detected	0/3	1/9
S35R I51A R56M	not detected	0/3	0/9
R56S R57F	not detected	0/3	0/9
T28P S31K R56E	2.6 nM	3/3	1/9
G55Q R56K Y60F	not detected	0/3	0/9
Y32E R56C A102T	2.5 µM	3/3	2/9
Y32Q I34F R56Y	not detected	0/3	0/9
I34W S35Q R56M	6.5 µM	1/3	2/9
D54C R56S V64C	not detected	0/3	1/9
G33F R56L F59D	not detected	0/3	0/9
R56W T58S V64E	not detected	0/3	1/9
N30C Y32Q R56H	not detected	0/3	0/9
R56I V64L	490 nM	3/3	1/9
F27M R56L	38 nM	3/3	1/9
L29M R56H G61K	390 nM	2/3	0/9
R56N R57K D62A	not detected	0/3	0/9
I34G R56Q	590 nM	1/3	0/9
L29F R56Y F59G	420 nM	1/3	2/9
F27E R56E F105W	460 nM	3/3	4/9
S31R V50C R56W	not detected	0/3	2/9
T28W R56E	86 nM	3/3	0/9
Y32H R56H	not detected	0/3	0/9
Y52A G55V R56W	not detected	0/3	3/9
R56V Y60V S107V	70 nM	3/3	3/9
Y52E R56Q T104A	140 µM	1/3	2/9
R56D G61I	8.4 nM	3/3	0/9
R56G Y60Q A102F	not detected	0/3	1/9
R56N S63G F105D	not detected	0/3	1/9
R56W F59V D62Q	290 nM	2/3	0/9
N30Y S53W R56V	1.2 µM	2/3	0/9
R56P Y60I V64D	not detected	0/3	0/9
R56I G103T	9.1 µM	1/3	1/9
N30H S53T R56G	6.0 µM	1/3	0/9
L29S R56G K65W	not detected	0/3	0/9
D54M R56Q V64M	not detected	0/3	1/9
F27H R56N F105S	not detected	0/3	0/9
R56K R57T F59T	92 nM	1/3	0/9
V50A R56Y R57N	420 nM	1/3	0/9
R56L Y60I S63F	29 µM	3/3	7/9
S31H R56M D62N	19 nM	3/3	3/9
S31V R56Y	270 nM	3/3	1/9
R56L A102Q	not detected	0/3	0/9
R56A	5.1 µM	1/3	1/9
L29A I51M R56S	not detected	0/3	2/9
F27E R56L D106E	180 µM	1/3	4/9
I51G R56Y G61P	not detected	0/3	0/9
Y52R R56W R100N	730 nM	1/3	1/9

A selection of 4 entries from above:

changes,Kd,seen in,control signals
R56T T58V R100S,2.0 µM,3/3,0/9
R56P Y60I V64D,not detected,0/3,0/9
G26A R56D G99W,480 nM,3/3,2/9
T28P S31K R56E,2.6 nM,3/3,1/9